# “And” between values parts separate entries of the source, which are not always exact repeats. Equal values may be shown once.
# Protein sequences, listed by entry. Tags and fused reporters are not part of them. Lines headed by an entry give the natural chain unless they say otherwise; changes in a name come on top.
# UniProt Q99558: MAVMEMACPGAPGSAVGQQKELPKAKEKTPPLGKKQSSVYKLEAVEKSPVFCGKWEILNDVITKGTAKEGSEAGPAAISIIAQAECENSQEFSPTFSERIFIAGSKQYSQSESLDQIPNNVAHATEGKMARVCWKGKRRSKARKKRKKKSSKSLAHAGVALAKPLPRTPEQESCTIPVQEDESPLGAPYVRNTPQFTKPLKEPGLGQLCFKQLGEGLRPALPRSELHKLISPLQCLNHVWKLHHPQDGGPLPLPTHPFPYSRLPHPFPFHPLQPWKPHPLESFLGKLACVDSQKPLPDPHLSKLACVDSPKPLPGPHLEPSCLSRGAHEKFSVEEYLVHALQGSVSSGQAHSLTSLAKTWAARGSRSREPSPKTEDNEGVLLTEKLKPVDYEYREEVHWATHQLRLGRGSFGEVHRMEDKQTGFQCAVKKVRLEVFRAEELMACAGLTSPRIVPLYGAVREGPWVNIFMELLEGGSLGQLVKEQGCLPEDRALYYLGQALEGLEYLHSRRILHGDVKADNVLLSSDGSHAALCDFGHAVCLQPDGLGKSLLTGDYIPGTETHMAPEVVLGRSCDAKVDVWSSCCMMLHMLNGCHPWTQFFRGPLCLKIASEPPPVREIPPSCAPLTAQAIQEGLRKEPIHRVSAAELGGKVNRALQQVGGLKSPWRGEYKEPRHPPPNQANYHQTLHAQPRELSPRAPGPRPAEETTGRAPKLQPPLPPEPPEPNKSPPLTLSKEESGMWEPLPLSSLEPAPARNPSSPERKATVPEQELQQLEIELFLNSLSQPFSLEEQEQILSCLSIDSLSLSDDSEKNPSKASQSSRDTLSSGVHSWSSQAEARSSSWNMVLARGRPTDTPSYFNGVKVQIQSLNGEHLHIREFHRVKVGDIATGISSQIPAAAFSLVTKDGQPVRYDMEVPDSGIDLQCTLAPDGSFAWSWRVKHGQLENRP
# Target: nuclear factor-kappa B (NF-kB)-inducing kinase (NIK) (Homo sapiens (Human), UniProt Q99558)
# Assay: NIK Enzyme Inhibition Assay (Transcreener ADP fluorescence polarization)
# Type: biochemical
# Conditions: purified NIK 0.2-1 nM, 10 uM ATP, Morrison's quadratic equation; read-out: NIK ADP-FP (Ki uM)
# Method: NIK Enzyme Inhibition Assay: The ability of the nuclear factor-kappa B (NF-kB)-inducing kinase (NIK) to catalyze the hydrolysis of adenosine-5′-triphosphate (ATP) was monitored using the Transcreener ADP (adenosine-5′-diphosphate) assay (BellBrook Labs). Purified NIK (0.2-1 nM) derived from a baculovirus-infected insect cell expression system was incubated with test compounds for 1-3.5 hours in 50 mM 2-[4-(2-hydroxyethyl)piperazin-1-yl]ethanesulfonic acid buffer (pH 7.2) containing 10 mM MgCl2, 2 mM dithiothreitol, 10 uM ATP, 0.01% Triton X-100, 0.1% gamma-globulins from bovine blood, 1% dimethylsulfoxide (DMSO), 12 ug/mL ADP antibody and 4 nM ADP-AlexaFluor® 633 tracer. Reactions were quenched by the addition of 20 mM 2,2′,2″,2′″-(ethane-1,2-diyldinitrilo)tetraacetic acid and 0.01% Brij 35. The tracer bound to the antibody was displaced by the ADP generated during the NIK reaction, which causes a decrease in fluorescence polarization that was measured by laser excitation at 633 nm with a Fluorescence Correlation Spectroscopy Plus reader (Evotec AG).
row,SMILES,Ki
1,CNC(=O)c1c(C(N)=O)nc2n1C1CC(C1)c1ccc(C#CC3(O)CCCC3)cc1-2 (racemic),0.00107 µM
2,CN1CCC[C@@](O)(C#Cc2ccc3c(c2)-c2nc(C(N)=O)sc2C(F)(F)CO3)C1=O (racemic),0.0017 µM
3,CC(C)(O)C#Cc1cc2c(cc1F)C1CC(C1)n1c-2nc(C(N)=O)c1CNC(=O)C1CC1 (racemic),0.0021 µM
4,CNC(=O)c1c(C(N)=O)nc2n1C1CC(C1)c1ccc(C#CC(C)(C)O)cc1-2 (racemic),0.00012 µM
5,"C[C@H]1COc2ccc(C#C[C@]3(O)CCN(C)C3=O)cc2-n2nc(C(N)=O)c(C(F)(F)F)c21 (racemic) [Example 564, (±)-10-bromo-9-fluoro-3-(hydroxy(1-methyl-1H-imidazol-2-yl)methyl)-6,7-dihydro-5H-5,7-methanobenzo[c]imidazo azepine-2-carboxamide]",0.00039 µM and 0.0016 µM
6,"CN1CC[C@@](O)(C#Cc2ccc3c(c2)-n2nc(C(N)=O)c(C(F)(F)F)c2[C@H](F)CO3)C1=O (racemic) [Example 539, (±)-10-bromo-2,3-diiodo-6-methyl-5,6-dihydrobenzo[f]imidazo[1,2-d][1,4]oxazepine]",0.0031 µM and 0.0023 µM
7,"CC(O)(C#Cc1cc2c(cc1F)OCCn1cc(C(N)=O)nc1-2)CO (racemic) [Example 57, (±)-9-[4-(3-Cyano-azetidin-1-yl)-3-hydroxy-3-methyl-4-oxo-but-1-ynyl]-8-fluoro-4,5-dihydro-6-oxa-1,3a-diaza-benzo[e]azulene-2-carboxylic acid amide]",0.049 µM

# Other lines, results leading:
row,Ki,SMILES
1,0.056 µM and 0.014 µM,"Cc1nc([C@](C)(O)C#Cc2ccc3c(c2)-n2nc(C(N)=O)cc2[C@H](C)CO3)no1 (racemic) [Example 504, (±)-Methyl 10-bromo-3-((3,5-difluorophenyl)(hydroxy)methyl)-9-fluoro-5,6-dihydrobenzo[f]imidazo[1,2-d][1,4]oxazepine-2-carboxylate]"
2,0.056 µM and 0.014 µM,"Cc1nc([C@](C)(O)C#Cc2ccc3c(c2)-n2nc(C(N)=O)cc2[C@@H](C)CO3)no1 (racemic) [Example 499, (±)-methyl 10-bromo-9-fluoro-3-(hydroxy(1-methyl-1H-pyrazol-5-yl)methyl)-5,6-dihydrobenzo[f]imidazo[1,2-d][1,4]oxazepine-2-carboxylate]"
3,0.0026 µM,"CC(O)(C#Cc1cc2c(cc1F)OCCn1c-2nc(C(N)=O)c1-c1nc(C2CC2)n[nH]1)CO (racemic) [Example 208, (±)-10-(3,4-dihydroxy-3-methylbut-1-yn-1-yl)-9-fluoro-5,6-dihydrobenzo[f]imidazo[1,2-d][1,4]oxazepine-2-carboxamide]"
4,0.0083 µM,"CC(O)(C#Cc1ccc2c(c1)-c1nc(C(N)=O)cn1C1CC2C1)c1ncccn1 (racemic) [Example 202, (±)-9-fluoro-10-(3-hydroxy-3-(1H-1,2,4-triazol-3-yl)but-1-yn-1-yl)-5,6-dihydrobenzo[f]imidazo[1,2-d][1,4]oxazepine-2-carboxamide]"
5,0.0069 µM,"CC(O)(C#Cc1cc2c(cc1F)C1CC(C1)n1cc(C(N)=O)nc1-2)c1ncccn1 (racemic) [Example 203, (±)-9-fluoro-10-(3-hydroxy-3-(1-methyl-1H-imidazol-2-yl)but-1-yn-1-yl)-5,6-dihydrobenzo[f]imidazo[1,2-d][1,4]oxazepine-2-carboxamide]"

# Same assay, conditions: read-out: NIK ADP-FP (Ki uM)
row,SMILES,Ki
1,"CC(C)NC(=O)[C@H]1Cn2cc(C(N)=O)nc2-c2cc(C#CC3(O)CCCC3)ccc2O1 [Example 595, (R)-10-((1-hydroxycyclopentyl)ethynyl)-N6-isopropyl-5,6-dihydrobenzo[f]imi-dazo[1,2-d][1,4]oxazepine-2,6-dicarboxamide]",> 1.2 µM and 1.3 µM
